# Ab-95 light chain CDR variants: yeast mating affinities

Values reported by Engelhart et al. 2022, doi:10.1038/s41597-022-01779-4 (FLAb copy).

All variants were tested on one target, the spike HR2 peptide PDVDLGDISGINAS (SARS-CoV-2).

The variants keep the heavy chain, the linker and the frameworks of Ab-95 (scFv order VH, the linker GGGGSGGGGSGGGGS, VL).
VH: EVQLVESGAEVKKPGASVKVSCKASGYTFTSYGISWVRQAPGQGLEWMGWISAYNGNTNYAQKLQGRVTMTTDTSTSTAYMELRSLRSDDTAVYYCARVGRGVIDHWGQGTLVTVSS
VL: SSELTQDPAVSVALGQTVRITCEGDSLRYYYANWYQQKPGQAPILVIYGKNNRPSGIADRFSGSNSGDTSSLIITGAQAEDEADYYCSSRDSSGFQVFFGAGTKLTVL

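Phage display of a naive human antibody library on the peptide gave the parent. In library AAYL52, one, two or three CDR residues were substituted; doubles and triples were drawn at random. The scFvs were displayed on barcoded MATa yeast, the peptide on MATalpha yeast. Binding brings cells together so that they mate, and sequencing counts the barcode pairs among the diploids. Read counts were normalised to the haploid input and turned into Kd by a linear fit to BCL2-family pairs of known affinity, for each replicate. Mating was done three times.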

The parent's light chain CDRs are EGDSLRYYYAN, GKNNRPS, SSRDSSGFQVF; each variant's own CDRs replace them letter for letter. Scale: log10 of Kd in nM, estimated from mating counts; low values are strong binders. A pair that was not seen in that replicate is written "nd"; this usually means weak binding, but a binder can also be missed. Nonspecific signal, from three strains lacking the peptide, appeared in 28% of pairings of library AAYL52, centred on 3.91 (5% of these signals below 2.90); values are not corrected for it. Also given: how often the same scFv was detected with the empty control strains, with their mean in brackets. Parent in this assay: reference entry 2.31, copy in this library 2.25.

CDR-L1,CDR-L2,CDR-L3,"log10 Kd, replicates",empty controls
EGDSLRYYYSN,GKNNRPS,SSRDSDGFQVF,2.60 2.05 nd,2 of 9 (2.68)
EGDDLRYYYAW,GKNNRPS,SSRMSSGFQVF,5.43 4.93 nd,3 of 9 (4.25)
EGDLLRYCYAN,GKVNRPS,SSRDSSGFQVF,nd nd 3.84,5 of 9 (4.04)
EGHSLRYYYAN,GKNNRPS,SLRDSSGFQVW,2.44 2.10 2.44,2 of 9 (4.78)
EGDSLRYPYAN,GKNNRPS,SSRDSSTNQVF,2.56 3.34 nd,0 of 9
EGDSLRYYYAN,GKNNRLS,SSRDSMGEQVF,2.89 3.67 3.41,2 of 9 (3.54)
EGDSLRYYTAN,GKNPRPS,SSRDSSGFQVA,2.99 nd 3.68,4 of 9 (4.22)
EHDSLRYYYAN,GKNNRPS,SSTASSGFQVF,nd 3.38 2.48,3 of 9 (4.10)
EGDSLRPIYFN,GKNNRPS,SSRDSSGFQVF,3.11 3.27 2.80,5 of 9 (4.14)
KGDSLRYYYAN,GKNNRPS,SMRDSSGFQVS,2.29 2.61 2.47,2 of 9 (4.36)
EGLSLRYYYAN,GLNNRPS,SSRDTSGFQVF,3.16 3.18 2.74,4 of 9 (3.65)
GGDSLLYYYAN,GKNNRPS,SSRDSSGFAVF,2.61 2.17 1.98,2 of 9 (4.09)
EGDSLVYYYAN,GKNNRPS,YSRDSSGFQLF,nd 3.84 3.54,2 of 9 (4.04)
EGDSALYYYAN,GKNNRPS,SSRDSSGFQVF,3.94 5.35 nd,1 of 9 (3.34)
EGDSGRYYYTN,GKYNRPS,SSRDSSGFQVF,3.44 3.55 nd,3 of 9 (4.86)
EGSSLRYYYAN,GKTNRPS,STRDSSGFQVF,3.05 3.19 nd,2 of 9 (3.99)
EPDSLRYYYAN,GKNNRYS,SARDSSGFQVF,3.64 4.74 3.07,2 of 9 (4.84)
EGDSLRYPYAN,GKNNRPS,LSRDSSGFQRF,2.54 2.38 2.04,2 of 9 (4.24)
EGDSLRYYYAN,GKSNRPS,SSRDSSGFQVF,2.66 2.92 2.60,4 of 9 (3.93)
EGDSLRYYYGR,GKNNRPS,SSHDSSGFQVF,3.94 nd 4.35,3 of 9 (3.87)
EGDSIRYYYAN,GKNNRPS,SSRDSSGCQVD,4.41 4.03 nd,2 of 9 (4.00)
EGDSLRYYYLN,GKNNRPE,SSRDSSGFQVY,5.31 nd 4.10,4 of 9 (4.11)
EGDSTHYYYAN,GKYNRPS,SSRDSSGFQVF,nd nd 3.13,0 of 9
EGDSLLYYYAN,GKNNRPS,SYRDSSGFQNF,3.44 nd nd,2 of 9 (3.54)
EGDSLRYMHAN,GKNNRPS,HSRDSSGFQVF,1.72 2.20 1.88,5 of 9 (4.13)
EADSLRYYTAN,GKNNRPS,SSRDSSGFQTF,2.84 2.66 2.79,5 of 9 (3.65)
ECDSLRYYYAN,GKNNRPS,SSKDMSGFQVF,3.47 nd 3.76,1 of 9 (3.19)
EGDSLRYYYAN,GKNNRPV,SSRDSSGFCVF,2.67 2.36 2.09,3 of 9 (4.29)
EGDSLRYYYAN,GKNFRPS,SSRDQSGFVVF,2.34 2.92 1.92,1 of 9 (4.60)
EGKSLRYYYAN,GKSVRPS,SSRDSSGFQVF,2.66 2.81 2.45,4 of 9 (3.96)
EGDSLRYYYAN,GKNNRPS,VSRDSSGFWVF,3.81 nd nd,1 of 9 (3.16)